Measurements as given in patent US8735406B2, “8-oxodihydropurine derivative” (Dainippon Sumitomo Pharma Co., Ltd., priority 2009, dated 2014).

Sequences of proteins named here, by UniProt entry; tags and fusion partners are left off.
UniProt P97612, whole entry: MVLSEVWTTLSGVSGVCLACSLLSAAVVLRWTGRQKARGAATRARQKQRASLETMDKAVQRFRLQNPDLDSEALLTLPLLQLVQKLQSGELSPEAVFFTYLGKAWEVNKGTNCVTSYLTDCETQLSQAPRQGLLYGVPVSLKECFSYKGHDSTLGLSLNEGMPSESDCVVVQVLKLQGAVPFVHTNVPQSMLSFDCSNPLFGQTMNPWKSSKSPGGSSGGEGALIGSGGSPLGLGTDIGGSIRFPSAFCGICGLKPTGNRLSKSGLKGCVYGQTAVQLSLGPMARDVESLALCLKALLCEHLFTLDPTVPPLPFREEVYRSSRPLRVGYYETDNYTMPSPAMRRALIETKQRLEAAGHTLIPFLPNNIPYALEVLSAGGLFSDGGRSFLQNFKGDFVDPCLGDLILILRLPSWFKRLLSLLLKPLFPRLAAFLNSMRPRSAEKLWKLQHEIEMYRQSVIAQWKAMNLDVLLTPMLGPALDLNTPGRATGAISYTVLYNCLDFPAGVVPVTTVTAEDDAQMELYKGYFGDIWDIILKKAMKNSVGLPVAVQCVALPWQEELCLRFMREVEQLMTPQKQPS

Biological target: FAAH (Rattus norvegicus, UniProt P97612)
Assay: Determination of FAAH inhibitory activity in rat (rat brain membrane preparations, [3H]-anandamide hydrolysis)

Structure (SMILES): Cn1c(=O)n(C(=O)N2CCC2)c2nc(CCc3cccc(OC(F)F)c3)ncc21
- FAAH Inhibition, Inhibition Rate at 100 nM (at 100 nM): 105%
- IC50 (read-out: FAAH Inhibition IC50): 5 nM
